From patent publication US8252752B2 (priority 2000, dated 2012)

By UniProt entry, the sequences of proteins in these tests, tags left out.
UniProt Q01959, whole entry: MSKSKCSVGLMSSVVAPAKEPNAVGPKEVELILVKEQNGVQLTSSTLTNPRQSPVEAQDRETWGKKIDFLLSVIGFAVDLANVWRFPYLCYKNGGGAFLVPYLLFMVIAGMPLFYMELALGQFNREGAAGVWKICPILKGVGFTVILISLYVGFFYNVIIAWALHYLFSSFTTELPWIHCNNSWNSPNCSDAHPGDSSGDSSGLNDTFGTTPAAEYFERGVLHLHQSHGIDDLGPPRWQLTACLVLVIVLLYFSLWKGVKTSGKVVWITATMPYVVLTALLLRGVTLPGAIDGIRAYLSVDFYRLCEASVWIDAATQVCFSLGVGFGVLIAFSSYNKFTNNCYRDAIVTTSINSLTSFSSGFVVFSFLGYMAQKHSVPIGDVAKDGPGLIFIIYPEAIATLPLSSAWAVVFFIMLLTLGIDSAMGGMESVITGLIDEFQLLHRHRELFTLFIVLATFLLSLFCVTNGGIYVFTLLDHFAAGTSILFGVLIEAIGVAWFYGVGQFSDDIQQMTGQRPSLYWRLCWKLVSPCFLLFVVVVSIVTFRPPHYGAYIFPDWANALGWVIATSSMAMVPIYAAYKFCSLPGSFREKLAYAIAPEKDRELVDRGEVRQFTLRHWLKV

Target: human DAT (Homo sapiens, UniProt Q01959)
Conditions: hDAT-transfected cells, 5 hrs. incubation

Dopamine gluconamine [Compound #2]
competition of 3H-dopamine uptake: Competition of ^3H-dopamine uptake was observed
